Measurements: patent publication US20140045883A1, “ACK1 KINASE INHIBITION TO TREAT TRIPLE NEGATIVE BREAST CANCER” (H. Lee Moffitt Cancer Center and Research Institute, Inc., priority 2012, published 2014)

Protein sequences, listed by entry. Tags and fused reporters are not part of them. Lines headed by an entry give the natural chain unless they say otherwise; changes in a name come on top.
UniProt Q07912: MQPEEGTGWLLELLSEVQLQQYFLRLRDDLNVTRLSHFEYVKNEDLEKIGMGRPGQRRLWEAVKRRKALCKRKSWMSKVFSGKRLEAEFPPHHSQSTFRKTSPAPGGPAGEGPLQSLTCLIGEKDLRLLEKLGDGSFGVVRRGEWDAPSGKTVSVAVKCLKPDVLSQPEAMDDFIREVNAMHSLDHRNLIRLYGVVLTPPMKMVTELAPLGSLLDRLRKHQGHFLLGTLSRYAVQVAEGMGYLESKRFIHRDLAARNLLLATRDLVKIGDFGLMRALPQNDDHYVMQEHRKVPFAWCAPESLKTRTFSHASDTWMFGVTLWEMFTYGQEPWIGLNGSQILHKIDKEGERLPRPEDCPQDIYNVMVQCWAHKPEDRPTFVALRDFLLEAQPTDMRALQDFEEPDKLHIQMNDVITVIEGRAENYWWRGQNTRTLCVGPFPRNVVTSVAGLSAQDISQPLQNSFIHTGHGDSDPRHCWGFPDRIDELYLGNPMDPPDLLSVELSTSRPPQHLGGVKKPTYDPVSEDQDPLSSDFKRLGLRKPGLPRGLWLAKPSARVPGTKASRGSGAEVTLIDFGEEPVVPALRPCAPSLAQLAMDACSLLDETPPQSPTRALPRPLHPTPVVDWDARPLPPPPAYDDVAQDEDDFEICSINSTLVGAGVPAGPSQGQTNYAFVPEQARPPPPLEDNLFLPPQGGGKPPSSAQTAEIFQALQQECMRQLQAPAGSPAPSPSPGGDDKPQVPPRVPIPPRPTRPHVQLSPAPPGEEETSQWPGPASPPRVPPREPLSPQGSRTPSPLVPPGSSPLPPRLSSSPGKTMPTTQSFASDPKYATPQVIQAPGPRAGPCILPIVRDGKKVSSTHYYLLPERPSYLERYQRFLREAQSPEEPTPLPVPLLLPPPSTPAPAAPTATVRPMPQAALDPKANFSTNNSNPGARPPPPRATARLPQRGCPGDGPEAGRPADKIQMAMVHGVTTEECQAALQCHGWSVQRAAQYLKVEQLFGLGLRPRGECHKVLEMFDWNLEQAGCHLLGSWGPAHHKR

Biological target: purified Ack1 kinase (Homo sapiens, UniProt Q07912)
Settings: inhibitor 50 nM, Ack1 50 nM, 5 uM ATP, 1 hour

SMILES: CCCS(=O)(=O)Nc1ccc(F)c(C(=O)c2c[nH]c3ncc(-c4ccc(Cl)cc4)cc23)c1F [PLX4032, Vemurafenib]
- AKT Tyr176-phosphorylation (ELISA): significant decrease
